The data set can be described thus: ATP cell viability assay (CellTiter-Glo) cytotoxicity. The format is cell-based. To be noted: human, Caco-2 (intestinal) cells; 70% efavirenz loaded; 24 hours incubation. From the text: HepG2 (hepatic) and Caco-2 (intestinal) cells were purchased from American Type Tissue Culture (ATCC; USA) and maintained in Dulbecco's modified eagle's medium (DMEM; Sigma; Dorest, Uk) supplemented with 10% fetal bovine serum (FBS; Bio-Whittaker, Berkshire, Uk) for HepG2 and 15% FBS for Caco-2. CEM (lymphocyte) and THP-1 (monocyte) cells were purchased from European Collection of Cell Culture (ECACC; Porton Down, Uk) and grown in RPMI-1640 (Sigma; Dorest, Uk) supplemented with 10% FBS. All cell lines were incubated at 37° C. and 5% CO2 and for adherent cells (HepG2 and Caco-2) were routinely sub-cultured every 4 days when 95% confluent. Suspension cells (CEM and THP-1) were routinely sub-cultured when a density of 1×10^6 cells/ml was achieved. Cell count and viability was determined by Trypan Blue exclusion assay.
HepG2, Caco-2, THP-1, CEM and A-THP-1 cells were separately seeded at a density of 2.5×10^4/100 μl in their appropriate media into each well of a 96 well plate (Nunclon™, Denmark) and incubated for 24 hours at 37° C. and 5% CO2. Media was then aspirated and replaced with media containing 0.1, 1, 10, 100, 500 or 1000 μM, calculated from molarity of efavirenz (145 samples), of each efavirenz dispersion and incubated for a further 24 hours. The same procedure was followed for each individual excipient (23 samples) with concentrations range of 1 μM to 1 M. […]
In general terms: ATP-based viability assays read luminescence as a measure of living cells.

In the case of `O=C1Nc2ccc(Cl)cc2[C@@](C#CC2CC2)(C(F)(F)F)O1` [Aqueous solution, efavirenz], half-maximal inhibition (IC50 at 24 h) was put at 39 µM.

The term IC50 denotes the concentration at which inhibition is half-maximal. A low value points to higher potency.
